{"sequences": {"note": "Protein sequences, listed by entry. Tags and fused reporters are not part of them.", "UniProt P19328, whole entry": "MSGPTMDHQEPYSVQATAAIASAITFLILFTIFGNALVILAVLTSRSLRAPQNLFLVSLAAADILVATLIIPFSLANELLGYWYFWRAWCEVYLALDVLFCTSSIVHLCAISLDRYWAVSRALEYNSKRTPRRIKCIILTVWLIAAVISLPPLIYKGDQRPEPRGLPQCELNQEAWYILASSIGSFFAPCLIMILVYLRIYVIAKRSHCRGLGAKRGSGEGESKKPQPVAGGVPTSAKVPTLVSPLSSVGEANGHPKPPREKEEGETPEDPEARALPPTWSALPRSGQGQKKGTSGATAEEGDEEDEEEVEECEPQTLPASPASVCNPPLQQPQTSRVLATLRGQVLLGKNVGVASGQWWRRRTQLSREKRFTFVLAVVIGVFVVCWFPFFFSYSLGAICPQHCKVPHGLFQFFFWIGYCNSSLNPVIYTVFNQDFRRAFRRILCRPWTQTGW"}, "source": "ChEMBL document CHEMBL1130342", "about": "“Synthesis and evaluation of 2-(arylamino)imidazoles as alpha 2-adrenergic agonists” (J Med Chem, 1997)", "target": "Alpha-2B adrenergic receptor (Rattus norvegicus, UniProt P19328)", "test": "Effective Concentration at Alpha-2B adrenergic receptor from CHO-RNG cells", "type": "functional, cell-based", "procedure,_shortened": "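Functional agonist response measured by Cytosensor microphysiometry in CHO cells expressing α2A (CHO-C10) or rat α2B (CHO-RNG) adrenoceptor.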"}
{"compound": "Brc1c(NC2=NCCN2)ccc2nccnc12", "note": "[BRIMONIDINE]", "values": [{"measurement": "EC50", "result": 55, "unit": "nM"}]}
